Assay results reported in ChEMBL document CHEMBL1133186, “A new class of HIV-1 integrase inhibitors: the 3,3,3', 3'-tetramethyl-1,1'-spirobi(indan)-5,5',6,6'-tetrol family” (J Med Chem, 2000).

Tests used:
[1] = test system: Integrase (Human immunodeficiency virus 1); experiment: Tested in vitro against strand -transfer (ST) activity in the presence of Mg2+ as the cationic cofactor
[2] = test system: Integrase (Human immunodeficiency virus 1); experiment: Compound was tested in vitro against strand -transfer (ST) activity in the presence of Mg2+ as the cationic cofactor at a concentration of 200 uM; NA is Not Active.

SMILES	inhibition [1]	NA [2]
CC1(C)CC2(CC(C)(C)c3cc(OS(=O)(=O)O)c(OS(=O)(=O)O)cc32)c2cc(OS(=O)(=O)O)c(OS(=O)(=O)O)cc21	inactive	
CC1(C)CC2(CC(C)(C)c3cc(O)c(O)cc32)c2cc(O)c(O)cc21	inactive	
CC1(C)CC2(CC(C)(C)c3ccc(O)cc32)c2cc(O)ccc21		inactive
CC1(C)CC2(CC(C)(C)c3ccc(O)c(NC(N)=O)c32)c2cc(O)c(NC(N)=O)cc21 (centres undefined)		inactive

Active and inactive are the calls of the source. The rule behind the calls is not given here.
